The subject of the data set is Nc1ncnc2c1ncn2[C@@H]1O[C@H](COP(=O)(O)OP(=O)(O)OP(=O)(O)O)[C@@H](O)[C@H]1O. Description: purified protein. The following applies: pH 7.0, 45 °C, 100 mM Mg2+, glutamate and NH4+ as co-substrates, range 0.5-5 mM.

In general, Km refers to the concentration of substrate that gives half-maximal velocity. Turning to rTsGS (Trichinella spiralis), the Michaelis constant (Km) was determined as 160 µM.
